{"sequences": {"note": "Amino acid sequences for entries named in this document (tags omitted).", "UniProt P13569, whole entry N1303K": "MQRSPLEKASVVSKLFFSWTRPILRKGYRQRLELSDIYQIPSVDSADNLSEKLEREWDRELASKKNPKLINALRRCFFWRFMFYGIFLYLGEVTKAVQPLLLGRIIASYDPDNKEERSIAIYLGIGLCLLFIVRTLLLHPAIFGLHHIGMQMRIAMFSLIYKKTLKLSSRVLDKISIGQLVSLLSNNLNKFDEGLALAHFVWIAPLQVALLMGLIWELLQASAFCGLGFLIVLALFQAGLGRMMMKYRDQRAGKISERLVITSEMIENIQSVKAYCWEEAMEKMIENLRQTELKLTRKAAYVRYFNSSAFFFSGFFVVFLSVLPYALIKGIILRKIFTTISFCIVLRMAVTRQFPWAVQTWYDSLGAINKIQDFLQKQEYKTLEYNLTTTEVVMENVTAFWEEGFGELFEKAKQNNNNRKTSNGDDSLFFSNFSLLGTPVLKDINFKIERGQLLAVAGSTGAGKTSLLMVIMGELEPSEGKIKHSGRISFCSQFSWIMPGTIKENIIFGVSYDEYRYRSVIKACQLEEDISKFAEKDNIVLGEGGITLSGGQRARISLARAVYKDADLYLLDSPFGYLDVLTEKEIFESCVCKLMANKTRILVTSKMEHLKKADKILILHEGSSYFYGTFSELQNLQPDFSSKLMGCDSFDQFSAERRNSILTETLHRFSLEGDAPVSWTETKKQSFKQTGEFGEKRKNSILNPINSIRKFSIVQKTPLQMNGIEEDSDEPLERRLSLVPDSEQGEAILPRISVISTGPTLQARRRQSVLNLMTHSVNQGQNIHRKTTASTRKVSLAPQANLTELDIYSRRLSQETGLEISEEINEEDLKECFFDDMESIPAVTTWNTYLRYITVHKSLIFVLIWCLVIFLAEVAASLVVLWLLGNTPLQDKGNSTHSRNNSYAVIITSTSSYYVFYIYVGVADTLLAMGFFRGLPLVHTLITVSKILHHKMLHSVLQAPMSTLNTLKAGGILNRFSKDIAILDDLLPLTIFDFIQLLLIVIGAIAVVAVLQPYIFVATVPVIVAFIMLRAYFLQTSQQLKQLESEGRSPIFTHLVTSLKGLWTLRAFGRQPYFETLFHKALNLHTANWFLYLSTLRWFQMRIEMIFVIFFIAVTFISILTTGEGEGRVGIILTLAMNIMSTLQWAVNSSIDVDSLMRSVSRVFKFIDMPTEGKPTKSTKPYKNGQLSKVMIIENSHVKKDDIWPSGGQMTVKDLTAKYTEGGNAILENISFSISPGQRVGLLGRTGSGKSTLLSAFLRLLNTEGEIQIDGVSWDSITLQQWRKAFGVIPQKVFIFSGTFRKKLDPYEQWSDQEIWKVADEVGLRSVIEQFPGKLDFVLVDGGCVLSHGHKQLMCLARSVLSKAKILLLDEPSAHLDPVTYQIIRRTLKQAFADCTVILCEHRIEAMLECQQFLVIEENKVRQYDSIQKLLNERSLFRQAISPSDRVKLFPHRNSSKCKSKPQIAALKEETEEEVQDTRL"}, "source": "paper PMC6881293", "about": "“Nanomolar-potency ‘co-potentiator’ therapy for cystic fibrosis caused by a defined subset of minimal function CFTR mutants” (Scientific Reports, 2019)", "biological_target": "N1303K-CFTR (Homo sapiens, UniProt P13569, N1303K)", "conditions": "16HBE-N1303Kge cells; 20 µM compound after 20 µM forskolin and 5 µM VX-770"}
{"smiles": "COc1ccc2cc3c(N)nn(C(=O)c4cc(-c5cccs5)nc5ccccc45)c3nc2c1", "values": [{"measurement": "CFTRinh-172-inhibitable short-circuit current response", "result": "~ 10 μA/cm^2"}]}
